The record followed here is patent US7355056B2, “Transfection agents” (Canji, Inc., priority 2003, dated 2008).

This experiment deals with IFN responsive genes (2′,5′-OAS, MX1). The experiment can be described thus: RT-PCR expression of IFN responsive genes in rat bladder homogenates after IFN protein in a SYN3 formulation. In kind it is in vivo. Particulars: administered in a SYN3 formulation.

Consider Intron A: IFNα2b protein (Intron A), for which the “expression levels compared to those after administration of rAd-IFNα2b or rAd-IFNα2α1” value was “somewhat inferior”; the “expression of the rat OAS and MX1 genes” value was “increased”.
